Here are results for one substance from patent US11357829B2, “Systems, compositions and methods for treating diabetes” (Vanderbilt University, priority 2017, dated 2022).

Like-named read-outs stand apart in the source and are kept apart here.

Series [1] deals with conscious subjects (canine). Put plainly: Subcutaneous two-pump insulin and glucagon infusion, hypoglycemia (subjects 7-11).
Assay in series [2]: not given
This is another data set of the same source.

Series [3] relates to conscious subjects (canine). Put plainly: Adrenalectomized canine, insulin-induced hypoglycemia, basal vs high IV glucagon. The note with it: IV insulin 0.8 mU/kg/min, both groups, increased from ~10.
In series [4] the test system is conscious canine subjects. Briefly: Subcutaneous co-infusion at reduced basal rates (insulin 0.32 mU/kg/min, glucagon 1.68 ng/kg/min). The note with it: last 1 hour of basal hormone replacement period, subcutaneous insulin 0.32 mU/kg/min.
For series [5], the system named is conscious subjects (canine). Put plainly: IV pancreatic clamp, insulin-induced hypoglycemia, glucagon raised proportionally vs kept basal (subjects 1, 2, 5, 6). The note with it: mean of 4 hypoglycemic subjects, similar at I/G 3-5 and I/G 12-25.
The subject of series [6] is conscious canine subjects. Briefly: Subcutaneous co-infusion insulin 0.4 mU/kg/min and glucagon 2.1 ng/kg/min with 4-fold insulin challenge. The conditions noted are these: insulin challenge period, insulin 1.6 mU/kg/min, both groups.
Assay in series [7]: not given
The source holds these as a separate data set.

[8] abbreviates: insulin infusion rate increased 4-fold, subcutaneous.

On to insulin, for which the “arterial insulin, average” value (150 to 180 min, somatostatin, subcutaneous insulin 0.4 mU/kg/min) is 9.8±1.4 μU/mL. For the same substance, the arterial plasma insulin (after 90 min subcutaneous insulin 0.4 mU/kg/min (endogenous and infused)) was 9.4±0.8 μU/mL. For the same substance, the “decrease of insulin level within the liver vs baseline” value (basal hormone replacement period) is on record as roughly 50%. For the same substance, the “estimated insulin level within the liver” value (basal hormone replacement period, endogenous secretion inhibited) is given as 7.8 μU/mL. In addition, the “arterial insulin level, ultimately reached” value (insulin infusion rate increased 4-fold) stood at 38.8±3.5 μU/mL. For the same substance, under setting [8], the “increase of arterial insulin level” value was roughly 4 fold. The “lag time of arterial insulin increase” value under setting [8] is recorded as roughly 90 min. For the same substance, the arterial insulin level (insulin infusion rate increased 4-fold, within 90 min) is given as 34.5±2.9 μU/mL and the arterial insulin level in series [3] is reported as roughly 40 μU/mL. Also, the “increase of arterial insulin from baseline” value (subcutaneous insulin 0.4 mU/kg/min) is given as “approximately 40%”. The “average arterial plasma insulin level” value in series [1] (subcutaneous insulin 0.4 mU/kg/min, end of the basal period) is recorded as 10-12 μU/ml. Also, in series [1] (subcutaneous, 4-fold increase in insulin infusion rate, both groups), the plasma insulin entry is “approximately 45 μU/ml”. In addition, the “individual DS solubility” value in series [2] (95% PBS and 5% vitamin E TPGS) came to 1380 µg/mL. Moreover, the “concentration reached in co-solvents” value in series [2] (all co-solvents comprising 34.5-35.5% PB) is recorded as “Target concentrations”; in series [2] (all co-solvents tested where organic co-solvent greater than 30% of the mixture, PB pH 7.8) it was “target concentrations”. Besides, the “insulin level, average” value in series [4] turned out to be 6 μU/mL. The “rise in insulin (plasma)” value in series [5] is reported as “approximately 50 μU/ml”. Also, the “increase of arterial insulin levels” value in series [6] was roughly 4 fold. Moreover, the “solubility (concentration in supernatant)” value was “greater than 8 mg/mL” in series [7] (DMSO), “greater than 8 mg/mL” in series [7] (NMP), “less than 2 mg/mL” in series [7] (glycerol) and “less than 2 mg/mL” in series [7] (propylene glycol).
